In the series the target is T1, CYP3A4 (Homo sapiens, UniProt P08684).
T1 construct: P2A self-cleaving peptide (linker to POR in the polycistronic cassette) (C); expressed in transfected cells
The experiment in a line: CYP3A4 inhibition in CYPs–UGT1A1 KI-HepG2 cells (1′-hydroxy midazolam formation, HPLC). Format: in vitro ADME. The conditions noted are these: 10 μM inhibitor, 10 μM midazolam, p < 0.01. The protocol:
The cells were cultured on 48-well plates, then washed with pH 7.4 HBSS containing 10 mM HEPES and 25 mM glucose. […] After preincubation, HBSS containing 10 μM phenacetin, 10 μM diclofenac, 50 μM S-mephenytoin, 1 μM bufuralol, 10 μM midazolam, 10 μM 7′-hydroxy coumarin, or 1 μM propranolol was added, and the cells were incubated at 37 ℃ for 360 min. […] The samples were collected from the supernatant, then immediately mixed with the same volume of acetonitrile. The mixed solutions were centrifuged for 5 min at 15,000× g. […] HPLC analysis was performed using a LO-20AD SPD + RF (DGU-20A, LC-20AD, RF-20A xs, SIL-20AC, CBM-20A, SPD-20A, CTO-20AC; Shimadzu). The concentrations of each metabolite were calculated according to the respective standard followed by normalization to the protein content per well.
A value of p < 0.05 was considered statistically significant. Using the SigmaPlot v.
The quantity of metabolites (4′-hydroxy diclofenac, 1′-hydroxy bufuralol, and 1′-hydroxy midazolam; these compounds are metabolites for CYP2C9, 2D6, and 3A4, respectively) were measured by HPLC. Data represent the means ± SD (n = 3, technical replicates). Statistical analyses were performed using the unpaired two-tailed Student’s t test (** p < 0.01). […]

The chains behind the UniProt entries cited, without tags or fusion partners.
UniProt P08684, whole entry: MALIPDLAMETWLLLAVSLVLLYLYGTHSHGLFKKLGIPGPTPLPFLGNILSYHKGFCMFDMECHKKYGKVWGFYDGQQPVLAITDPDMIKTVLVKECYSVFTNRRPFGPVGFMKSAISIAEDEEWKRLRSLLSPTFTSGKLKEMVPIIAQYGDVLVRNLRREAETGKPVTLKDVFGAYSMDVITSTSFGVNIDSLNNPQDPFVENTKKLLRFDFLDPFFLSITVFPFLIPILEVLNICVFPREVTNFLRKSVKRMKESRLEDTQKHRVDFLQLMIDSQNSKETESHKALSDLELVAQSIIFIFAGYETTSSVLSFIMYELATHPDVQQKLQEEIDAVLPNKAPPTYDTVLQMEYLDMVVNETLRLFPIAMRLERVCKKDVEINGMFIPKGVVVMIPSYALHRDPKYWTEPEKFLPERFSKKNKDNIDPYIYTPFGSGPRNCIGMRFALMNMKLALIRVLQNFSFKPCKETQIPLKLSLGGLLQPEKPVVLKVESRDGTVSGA

SMILES strings stand for the structures.

With `CCC(C)n1ncn(-c2ccc(N3CCN(c4ccc(OCC5COC(Cn6cncn6)(c6ccc(Cl)cc6Cl)O5)cc4)CC3)cc2)c1=O` (stereo not shown) [itraconazole], the “CYP3A4 activity in the presence of the inhibitor” value was “significantly decreased”.

For the origin of these results see article PMC9140068, “Generation of HepG2 Cells with High Expression of Multiple Drug-Metabolizing Enzymes for Drug Discovery Research Using a PITCh System” (Cells, 2022).
